In assay [1] the target is human dopamine D1 receptor (Homo sapiens, UniProt P21728). Put plainly: Cyclic AMP accumulation in HEK cells stably expressing the human dopamine D1 receptor (cloned hD1). Format: cell-based. To be noted: 15 min at 37° C.
Assay [2] deals with endogenous human D1-like dopamine receptor in MCF7 cells (Homo sapiens, UniProt P21728). The experiment in a line: cell-based. To be noted: for EC50: read-out: EC50 (nM), Endogenous hD1, MCF7 cells, cyclic AMP accumulation, 15 min at 37° C. (FIG. 3A). As to the method:
The data presented in FIG. 2B are the mean±SEM of three independent experiments assayed in duplicate.
The data presented in FIGS. 3B-C are the mean±SEM of three independent experiments assayed in duplicate.
Cell Culture. […] Cells were grown at 37° C. in a humidified incubator with 6% CO2.
Cyclic AMP accumulation assay. Assays were performed on confluent monolayers of cells in 48-well plates. […] Cyclic AMP stimulation assays were performed on HEK D1-CRELuc or MCF7 cells by incubating the cells with ligands for 15 minutes at 37° C. Cyclic AMP inhibition assays were performed on HEK-α2C cells in the presence 30 μM forskolin to stimulate cyclic AMP formation. All assays were performed in the presence of 500 μM isobutylmethylxanthine (IBMX) and terminated with ice cold 3% trichloroacetic acid.
Cyclic AMP binding assay. […] Briefly, cellular lysate (15-20 μL) was added to cyclic AMP binding buffer (100 mM Tris-HCl, pH 7.4, 100 mM NaCl, 5 mM EDTA) in assay tubes containing 1 nM final concentration [^3H]cyclic AMP and bovine adrenal gland cyclic AMP binding protein (100-150 μg in 500 μl binding buffer). The binding assay was incubated on ice at 4° C. for 2-4 hours and terminated by harvesting with ice cold wash buffer (10 mM Tris, 0.9% NaCl) using a 96-well Packard Filtermate cell harvester and Millipore Multiscreen Harvest Plates (Millipore, Billerica, Mass., USA). Packard Microscint O (40 μL) was added to each well after drying. Radioactivity was counted using a Packard Topcount scintillation counter. Standard curves ranging from 0.01 to 300 pmol of cyclic AMP were used to determine the concentration of cyclic AMP in each sample. Data analysis was performed on GraphPad Prism software.

By UniProt entry, the sequences of proteins in these tests, tags left out.
UniProt P21728, whole entry: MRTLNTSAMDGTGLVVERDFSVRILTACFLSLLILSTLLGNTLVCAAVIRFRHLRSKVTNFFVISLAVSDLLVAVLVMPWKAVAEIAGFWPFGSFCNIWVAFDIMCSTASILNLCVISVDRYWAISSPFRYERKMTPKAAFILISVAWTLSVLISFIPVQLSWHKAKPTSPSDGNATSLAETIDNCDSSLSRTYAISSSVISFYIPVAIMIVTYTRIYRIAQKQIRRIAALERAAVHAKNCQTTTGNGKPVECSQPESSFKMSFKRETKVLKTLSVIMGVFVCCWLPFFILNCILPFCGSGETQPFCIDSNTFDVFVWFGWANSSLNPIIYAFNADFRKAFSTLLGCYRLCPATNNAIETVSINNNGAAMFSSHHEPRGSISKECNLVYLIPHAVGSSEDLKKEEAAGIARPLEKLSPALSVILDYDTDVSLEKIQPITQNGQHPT

Several values for one entry are separate records, joined by “and”; a condition that tells them apart may be missing. Equal values may be shown once. Where a name gives a salt, the structure may show the parent alone.

The term EC50 denotes the midpoint of the concentration-response curve. For `Oc1cc2c(cc1O)[C@H]1c3ccccc3CN[C@@H]1CO2` [(+)-ODHX, (+)-(6aS,12bR)-2,3-Dihydroxy-6a,7,8,12b-tetrahydro-6H-chromeno[3,4-c]isoquinoline hydrochloride], the EC50 was ~50 nM and 53 nM in assay [1]; 190 ± 22 nM in assay [2].

Consider `Oc1cc2c(cc1O)C(c1ccccc1)CNCC2` (stereo not drawn) [SKF38393, reference compound], for which the Emax in assay [2] (MCF7, read-out: intrinsic activity relative to dopamine in MCF7 cells) is approximately 30%.

As for `Cl.Oc1cc2c(cc1O)C1c3ccccc3CNC1CO2` (racemic) [(±)-ODHX, 2,3-Dihydroxy-6a,7,8,12b-tetrahydro-6H-chromeno[3,4-c]isoquinoline hydrochloride], the EC50 in assay [2] stood at 120 ± 30 nM.

`Cl.Oc1cc2c(cc1O)[C@@H]1c3ccccc3CN[C@H]1CO2` [(−)-ODHX, (−)-(6aR,12bS)-2,3-Dihydroxy-6a,7,8,12b-tetrahydro-6H-chromeno[3,4-c]isoquinoline hydrochloride]: the EC50 is 931 ± 99 nM in assay [1] and 2860 ± 1990 nM in assay [2].
